Experimental data reported in patent US20230381112A1, “Compositions and Methods of Manufacturing Amphiphilic Block Copolymers that Form Nanoparticles in Situ” (Vaccuitech North America, Inc., priority 2020, published 2023).

Assay: DLS temperature sweep in PBS: hydrodynamic diameter (DH), transition temperature (Ttr), solubility/aggregation

Substance: CN-p[(NIPMAM)f1-co-(BnMAM)f2]-b-p(HPMA)a-DTB [Compound 200]
- particle diameter in solution above the transition temperature: ~53 nm
